System: K63-polyubiquitinated Akt
Test: In vitro cell-free deubiquitination of K63-polyubiquitinated recombinant Akt
Type: biochemical
Conditions: cell-free system; dose-dependent manner
From the text: FIG. 6 illustrates CYLD deubiquitinates K63-polyubiquitinated Akt to reduce Smad3. (a) Lysates from A549 cells co-transfected with HA-Ub WT, Flag-Akt WT, Flag-WT-CYLD or Flag-H/N-CYLD were immunoprecipitated with anti-Akt antibody and analysed by immunoblotting with the indicated antibodies. (b) Cells were co-transfected with Flag-Akt, HA-CYLD, or siCYLD and treated with S. pneumoniae. Akt was pulled down with Flag probe and immunoblotted against Ubiquitin (Ub), Akt, and CYLD. (c) Cells transfected with control vector or Flag-WT-CYLD were treated with S. pneumoniae, and cell lysates were immunoprecipitated with anti-Akt1 antibody and analysed by immunoblotting with the indicated antibodies. […] (e) Lysates from A549 cells co-transfected with Flag-Akt WT, Flag-WT-CYLD, HA-Ub WT, HA-Ub K63, or HA-Ub K48 were immunoprecipitated with anti-Akt antibody, and analysed by immunoblotting with the indicated antibodies. (f) Recombinant Akt1 (His-rAkt1) was incubated with recombinant K63 ubiquitin (His-rUb-K63) with or without recombinant CYLD (GST-rCYLD) in in vitro ubiquitination assay buffer (BostonBiochem) and analysed by immunoblotting with the indicated antibodies. […] (h) Lysates from cells co-transfected with HA-Ub K63, Flag-Akt WT, or Flag-Akt KR mutants (K8R, K14R, K20R or K30R) were immunoprecipitated with anti-Flag probe and analysed by immunoblotting with the indicated antibodies. […]

B1: GST-rCYLD: recombinant CYLD protein (protein)
chain: MSSGLWSQEKVTSPYWEERIFYLLLQECSVTDKQTQKLLKVPKGSIGQYIQDRSVGHSRIPSAKGKKNQIGLKILEQPHAVLFVDEKDVVEINEKFTELLLAITNCEERFSLFKNRNRLSKGLQIDVGCPVKVQLRSGEEKFPGVVRFRGPLLAERTVSGIFFGVELLEEGRGQGFTDGVYQGKQLFQCDEDCGVFVALDKLELIEDDDTALESDYAGPGDTMQVELPPLEINSRVSLKVGETIESGTVIFCDVLPGKESLGYFVGVDMDNPIGNWDGRFDGVQLCSFACVESTILLHINDIIPALSESVTQERRPPKLAFMSRGVGDKGSSSHNKPKATGSTSDPGNRNRSELFYTLNGSSVDSQPQSKSKNTWYIDEVAEDPAKSLTEISTDFDRSSPPLQPPPVNSLTTENRFHSLPFSLTKMPNTNGSIGHSPLSLSAQSVMEELNTAPVQESPPLAMPPGNSHGLEVGSLAEVKENPPFYGVIRWIGQPPGLNEVLAGLELEDECAGCTDGTFRGTRYFTCALKKALFVKLKSCRPDSRFASLQPVSNQIERCNSLAFGGYLSEVVEENTPPKMEKEGLEIMIGKKKGIQGHYNSCYLDSTLFCLFAFSSVLDTVLLRPKEKNDVEYYSETQELLRTEIVNPLRIYGYVCATKIMKLRKILEKVEAASGFTSEEKDPEEFLNILFHHILRVEPLLKIRSAGQKVQDCYFYQIFMEKNEKVGVPTIQQLLEWSFINSNLKFAEAPSCLIIQMPRFGKDFKLFKKIFPSLELNITDLLEDTPRQCRICGGLAMYECRECYDDPDISAGKIKQFCKTCNTQVHLHPKRLNHKYNPVSLPKDLPDWDWRHGCIPCQNMELFAVLCIETSHYVAFVKYGKDDSAWLFFDSMADRDGGQNGFNIPQVTPCPEVGEYLKMSLEDLHSLDSRRIQGCARRLLCDAYMCMYQSPTMSLYK
modifications: left off: a dimerising Fc or GST
notes: recombinant CYLD protein
- K63-linked polyubiquitination of Akt (His-rAkt) in vitro: directly deubiquitinates
